{"source": "PubChem BioAssay (NCI)", "key": {"[1]": {"assay": "NCI Yeast Anticancer Drug Screen. Data for the rad50 strain (AID 155);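 also: 0% = growth of vehicle-only cultures of the same strain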", "settings": "S. cerevisiae rad50 strain growth inhibition, active compounds read high"}, "[2]": {"assay": "NCI Yeast Anticancer Drug Screen. Data for the mec2-1 strain (AID 157)", "settings": "S. cerevisiae mec2-1 strain, active compounds read high"}, "[3]": {"assay": "NCI Yeast Anticancer Drug Screen. Data for the sgs1 mgt1 strain (AID 161);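 also: 0% = growth of cultures given vehicle only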", "settings": "S. cerevisiae sgs1 mgt1 strain, active compounds read high"}, "[4]": {"assay": "NCI Yeast Anticancer Drug Screen. Data for the cln2 rad14 strain (AID 165);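 also: 0% = growth equal to vehicle treated cultures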", "settings": "S. cerevisiae cln2 rad14 strain, active compounds read high"}, "[5]": {"assay": "NCI Yeast Anticancer Drug Screen. Data for the bub3 strain (AID 167)", "settings": "S. cerevisiae bub3 mutant strain, active compounds read high"}, "[6]": {"assay": "NCI Yeast Anticancer Drug Screen. Data for the mlh1 rad18 strain (AID 175)", "settings": "S. cerevisiae mlh1 rad18 strain growth inhibition, active compounds read high"}, "[7]": {"settings": "at 5.0 µM (retest, dose inferred, filed as 0.5)"}, "[8]": {"settings": "at 50.0 µM (retest, dose inferred, filed as 5.0)"}}, "note": "The list shows a part of the results, in another mix than the full data. The source holds several records for some structures; these can differ, active in one and inactive in another. Some salts or complexes appear as unconnected parts, following the source record. Calls of active or inactive are those of the source. Rule as the data show it: active = growth inhibition above about 70%; inactive = the rest.", "data": [{"smiles": "CN(CCCl)CCCl.CN(CCCl)CCCl.[Cl][Cu][Cl]", "values": [{"measurement": "growth inhibition", "setting": "[1]; at 50.0 µM", "result": "inactive: 15.6%"}, {"measurement": "growth inhibition", "setting": "[2]; at 50.0 µM", "result": "inactive: -8.65%"}, {"measurement": "growth inhibition", "setting": "[3]; at 50.0 µM", "result": "inactive: -17.2%"}, {"measurement": "growth inhibition", "setting": "[4]; at 50.0 µM", "result": "inactive: 0.55%"}, {"measurement": "growth inhibition", "setting": "[5]; at 50.0 µM", "result": "inactive: 0%"}, {"measurement": "growth inhibition", "setting": "[6]; at 50.0 µM", "result": "inactive: 4.75%"}]}, {"smiles": "CN(CCCl)CCCl", "values": [{"measurement": "growth inhibition", "setting": "[1]; at 50.0 µM", "result": "active: 90.7%"}, {"measurement": "growth inhibition", "setting": "[2]; at 50.0 µM", "result": "active: 90.5%"}, {"measurement": "growth inhibition", "setting": "[3]; at 50.0 µM", "result": "active: 93.2%"}, {"measurement": "growth inhibition", "setting": "[4]; at 50.0 µM", "result": "active: 90.9%"}, {"measurement": "growth inhibition", "setting": "[5]; at 50.0 µM", "result": "active: 90.4%"}, {"measurement": "growth inhibition", "setting": "[6]; at 50.0 µM", "result": "active: 91.1%"}]}, {"smiles": "CN(CCCl)CCCl.CN(CCCl)CCCl.[Cl][Pt+2][Cl]", "values": [{"measurement": "growth inhibition", "setting": "[1]; [7]", "result": "inactive: 40%"}, {"measurement": "growth inhibition", "setting": "[1]; [8]", "result": "active: 97%"}, {"measurement": "growth inhibition", "setting": "[1]; at 50.0 µM", "result": "active: 88.8%"}, {"measurement": "growth inhibition", "setting": "[2]; [7]", "result": "inactive: 22%"}, {"measurement": "growth inhibition", "setting": "[2]; [8]", "result": "active: 98%"}, {"measurement": "growth inhibition", "setting": "[2]; at 50.0 µM", "result": "active: 90.5%"}, {"measurement": "growth inhibition", "setting": "[3]; [7]", "result": "inactive: 25%"}, {"measurement": "growth inhibition", "setting": "[3]; [8]", "result": "active: 98%"}, {"measurement": "growth inhibition", "setting": "[3]; at 50.0 µM", "result": "active: 85.8%"}, {"measurement": "growth inhibition", "setting": "[4]; [7]", "result": "inactive: 26%"}, {"measurement": "growth inhibition", "setting": "[4]; [8]", "result": "active: 98%"}, {"measurement": "growth inhibition", "setting": "[4]; at 50.0 µM", "result": "active: 76.8%"}, {"measurement": "growth inhibition", "setting": "[5]; [7]", "result": "inactive: 6%"}, {"measurement": "growth inhibition", "setting": "[5]; [8]", "result": "active: 96%"}, {"measurement": "growth inhibition", "setting": "[5]; at 50.0 µM", "result": "active: 80.2%"}, {"measurement": "growth inhibition", "setting": "[6]; [7]", "result": "inactive: 64%"}, {"measurement": "growth inhibition", "setting": "[6]; [8]", "result": "active: 98%"}, {"measurement": "growth inhibition", "setting": "[6]; at 50.0 µM", "result": "active: 88.5%"}]}]}
